AlphaSeq binding of Ab-14 light chain variants to a spike HR2 peptide

Data: MIT Lincoln Laboratory AlphaSeq set, Engelhart et al. 2022, doi:10.1038/s41597-022-01779-4, as distributed in FLAb.

The target is the same throughout: PDVDLGDISGINAS, from the HR2 region of SARS-CoV-2 spike.

Ab-14 is the parent antibody, in scFv form: VH, then a (GGGGS)3 linker, then VL. The heavy chain is unchanged in all variants.
VH: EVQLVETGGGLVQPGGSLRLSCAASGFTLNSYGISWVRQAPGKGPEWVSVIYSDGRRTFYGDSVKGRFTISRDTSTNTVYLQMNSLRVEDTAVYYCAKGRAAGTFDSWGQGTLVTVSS
VL: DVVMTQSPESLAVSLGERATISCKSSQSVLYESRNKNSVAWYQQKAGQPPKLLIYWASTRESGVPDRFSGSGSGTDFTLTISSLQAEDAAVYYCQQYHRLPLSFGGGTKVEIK

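The parent was found by panning a naive human phage display library on the peptide. AAYL50 was designed without a model: most single CDR substitutions and a random sample of double and triple ones. The scFvs were displayed on barcoded MATa yeast, the peptide on MATalpha yeast. The frequency of each diploid, read from paired DNA barcodes, reflects how well the two displayed proteins bind. Scores were corrected for input abundance and mapped to Kd with protein pairs of known affinity run in the same pool. The assay was run in three technical replicates.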

Each variant is given by its three light chain CDRs, as the data file delimits them; those of the parent are KSSQSVLYESRNKNSVA, WASTRES, QQYHRLPLS.
The read-out is the apparent dissociation constant on a log10 scale (nM): the lower, the stronger.
A pair that was not seen in that replicate is written "ND"; this usually means weak binding, but a binder can also be missed.
Background: pairings of library AAYL50 with three empty control strains gave a value in 18% of cases (median 4.19, 5th percentile 2.99). Values in that range, when seen in few replicates, are hard to tell from nonspecific mating. Also given: how often the same scFv was detected with the empty control strains, with their mean in brackets.

CDR-L1,CDR-L2,CDR-L3,"log10 Kd, replicates",empty controls
KSSQSRLYESRNKNSVA,WASTREM,QQYHRLPLS,1.46 1.45 1.47,4/9 (4.78)
KSSQSVLYESRNKNSRA,WASTREV,QQYHRLPDS,3.99 ND 5.55,2/9 (4.36)
KSSQSVLYESRNKNSVA,WVSTKED,QQYHRLPLS,1.96 1.60 1.87,1/9 (2.91)
KSSQSVLYESRNKNSVA,RESTRES,QQGHRLPLS,ND ND ND,0/9
MSKQSVLYESRNKNSVA,WASTRES,QQFHRLPLS,2.26 2.07 2.33,1/9 (3.69)
KSSQSVLYESRNKNSVA,WASTRES,QGPHRLCLS,ND ND ND,2/9 (3.30)
KSSQSVLYSSRSKFSVA,WASTRES,QQYHRLPLS,ND ND ND,2/9 (4.38)
KSSQSVLYESRNKNSVR,WASTRES,QQYHPLRLS,5.90 4.39 5.64,4/9 (4.71)
KSSQSVLYESYNKNSVA,WASTRWS,QQYHRLPLS,1.17 1.27 1.37,3/9 (5.39)
KSSQSVLYESRNKNSVA,WAVTRES,QVHHRLPLS,5.06 ND ND,1/9 (3.55)
KSEQSVLYESRDKNSVA,WALTRES,QQYHRLPLS,ND ND 3.36,2/9 (4.48)
KSSQSVLYESRNWVSVA,WASTNES,QQYHRLPLS,ND 5.24 5.24,2/9 (4.27)
KSSQSVMYESRNKNSVA,WASTRES,EQYHRLPAS,0.88 0.76 0.62,0/9
DSSQSVVYHSRNKNSVA,WASTRES,QQYHRLPLS,3.09 3.26 3.44,2/9 (4.24)
KSSQSVLIESRNKNSVA,WWSTRES,QQYHRLPVS,ND 3.95 ND,0/9
KSSQSVLYESRSKNSVA,WASTFES,QQYHRLPLS,ND ND ND,0/9
ISSCSVLYESRNKNSVS,WASTRES,QQYHRLPLS,ND ND ND,4/9 (4.25)
KSDQSDLYESRNKNSVA,EASTRES,QQYHRLPLS,-0.16 0.07 -0.02,0/9
KSSQQVLYESRNKVRVA,WASTRES,QQYHRLPLS,ND ND ND,3/9 (4.47)
KSSVSKLYESRNKNSVA,WASTRES,QQYHRLPLQ,5.57 2.81 3.60,2/9 (4.73)
KSSVSVLYESRNKNSVV,WASTRES,QQYHRLPPS,ND 2.68 ND,0/9
KSNQSVLYESRNKNCVA,WASTRES,QQYHCLPLS,ND 4.02 ND,0/9

Further variants, results first:

"log10 Kd, replicates",empty controls,CDR-L1,CDR-L2,CDR-L3
1.06 0.50 0.54,0/9,KSSFSVLYESRNKNSVA,WASTRES,QQYWRLPLS
ND 3.98 4.71,4/9 (4.38),KSWQSVLYESRNKNSVA,WASTIES,QQYHRLPLP
0.93 1.22 1.19,2/9 (3.67),KSSQSVLYESRNKNSVA,WAHTRER,QQYHRLPLS
ND 5.10 3.24,1/9 (3.86),KSSQSVLYESRNKNRVA,VASTRES,QQYHREPLS
ND ND ND,0/9,KMSQSVLYESRNKNSVA,WASTRES,RQYTRLPLS
1.31 1.32 2.64,0/9,KSSQSANYESRNKNSVA,WASTREG,QQYHRLPLS
ND ND ND,0/9,KSSQSVLYEFMNKNSVA,EASTRES,QQYHRLPLS
0.64 0.75 0.80,1/9 (3.50),NSSQSVLYESRNRNSVA,WASTRVS,QQYHRLPLS
3.03 2.36 2.90,3/9 (5.18),KSSQSVLYETRNKNSVA,WASTRGS,AQYHRLPLS
ND ND ND,1/9 (3.45),KSSQSVLYESRNKITVA,WASTRES,QQYHVLPLS
ND ND 3.93,1/9 (4.17),KSSQSVLYESRNKFEVA,WASTRES,QQYHRRPLS
1.83 1.49 1.64,6/9 (3.95),LSSQSVFYESRDKNSVA,WASTRES,QQYHRLPLS
0.49 0.80 0.69,4/9 (5.08),ESSQSVWMESRNKNSVA,WASTRES,QQYHRLPLS
ND ND ND,0/9,KSSQSVLYEPRNKNSVG,WASTRES,QQPHRLPLS
3.96 ND ND,1/9 (3.82),KSSQSVLYESRNKNSVA,WASTSES,QQYHRLSLS
1.20 1.31 1.37,2/9 (4.30),KSSQSVFYESFNKNSVA,WASTRES,QTYHRLPLS
1.26 1.26 1.20,0/9,KSSQSGLYESRNKGSVA,WASTRES,QQYHRLPLS
ND ND ND,0/9,KSSQSVLYESRNKNSVA,WASTSES,QQIQRLPLS
0.97 1.06 1.04,3/9 (4.19),KSSQSVLYEARNKNSVA,WASTRES,QQYHHLPLG
3.54 2.57 2.49,1/9 (3.84),KSSQSVLLESRNKNSVA,WASTSES,QQYHRLPIS
ND ND ND,0/9,KSCQSVLYEGRNKNSVA,YASTRES,QQYHRLPLS
1.79 1.29 1.19,0/9,KSSQFVDYESRNKLSVA,WASTRES,QQYHRLPLS
ND 5.53 ND,1/9 (3.67),LSSQSVLYESRNKNSVY,WASTRES,KQYHRLPLS

The 6 strongest on average among those seen in every replicate, once more:

| CDR-L1 | CDR-L2 | CDR-L3 | log10 Kd, replicates | empty controls |
|---|---|---|---|---|
| KSDQSDLYESRNKNSVA | EASTRES | QQYHRLPLS | -0.16 0.07 -0.02 | 0/9 |
| ESSQSVWMESRNKNSVA | WASTRES | QQYHRLPLS | 0.49 0.80 0.69 | 4/9 (5.08) |
| KSSFSVLYESRNKNSVA | WASTRES | QQYWRLPLS | 1.06 0.50 0.54 | 0/9 |
| NSSQSVLYESRNRNSVA | WASTRVS | QQYHRLPLS | 0.64 0.75 0.80 | 1/9 (3.50) |
| KSSQSVMYESRNKNSVA | WASTRES | EQYHRLPAS | 0.88 0.76 0.62 | 0/9 |
| KSSQSVLYEARNKNSVA | WASTRES | QQYHHLPLG | 0.97 1.06 1.04 | 3/9 (4.19) |